Columns and labels:
[1] = test system: double stranded RNA dependent protein kinase (PKR) gene; assay: Induction of PKR mRNA in liver and spleen of mice after subcutaneous dosing, real time quantitative PCR; type: in vivo, mouse (C57B16 mice)
Description: The efficacy of HDV-interferon alpha was evaluated in a mouse model having a genetic marker response to the hepatic effect of interferon. C57B16 mice were obtained from Jackson Laboratory and a breeding colony was established at Cleveland MetroHealth Center, Cleveland, Ohio. Mice were obtained from the breeding colony. Two groups of mice, a test group and a control group, were treated. The test group received Interferon+HDV, while the control group received Interferon alone. HDV-Interferon comprised 100 mcg HDV to 10 mcg Interferon alpha. HDV was supplied by Hepasome Pharmaceuticals and Roeferon was the source of the interferon alpha. The HDV and interferon alpha were allowed to equilibrate for 12 hours prior to injection into the mice. Mice from both groups were dosed with 100,000 U/kg body wt. To test the timing of response to IFN, Roferon was subcutaneously injected into the mice. The mice were sacrificed at 6 hours after dosing. The spleen and liver of the sacrificed rats were obtained for analysis. […] The assay used real time quantitative PCR (polymerase chain reaction) to assay the level of PKR messenger ribonucleic acid (mRNA). […] The produced cDNAs were subjected to semi-quantitative PCR, the 6 hour time point was selected for the HDV experiments. […] Real time quantitative PCR was performed on the produced cDNAs using cybr green technology. […]

[2] = test system: hepatitis C virus; conditions: chronic hepatitis C; treatment with interferon alone; cited from earlier work

Substance: interferon alpha: Roeferon was the source of the interferon alpha; control group received Interferon alone
- relative expression level in the spleen compared to the relative expression level in the liver ([1]; PKR mRNA, mice dosed 100,000 U/kg subcutaneously, sacrificed at 6 hours, FIG. 12a): approximately twice
- increase in PKR activation relative to a baseline ([1]; hepatic PKR activation, mouse model, FIG. 13): ~5 fold
- sustained response, share of subjects [2]: less than 15%

Reference: patent US20070218117A1, “Supra molecular construct for delivery of interferon to a mammal” (SDG, Inc., priority 2006, published 2007)
